Experimental data taken from PubChem BioAssay AID720709 (National Center for Advancing Translational Sciences (NCATS), 2013).
Only a part is listed here, and it is no random draw. Records with an inconclusive call do not appear. Activity calls are given as the source filed them. Calls come from the whole dose curve; as a rule, active = well fitted inhibition curve with a large enough effect; inconclusive = small, poorly fitted or top-dose-only effect; inactive = no such curve, though single readings can be large or run the other way.

The chains behind the UniProt entries cited, without tags or fusion partners.
UniProt O95398, whole entry: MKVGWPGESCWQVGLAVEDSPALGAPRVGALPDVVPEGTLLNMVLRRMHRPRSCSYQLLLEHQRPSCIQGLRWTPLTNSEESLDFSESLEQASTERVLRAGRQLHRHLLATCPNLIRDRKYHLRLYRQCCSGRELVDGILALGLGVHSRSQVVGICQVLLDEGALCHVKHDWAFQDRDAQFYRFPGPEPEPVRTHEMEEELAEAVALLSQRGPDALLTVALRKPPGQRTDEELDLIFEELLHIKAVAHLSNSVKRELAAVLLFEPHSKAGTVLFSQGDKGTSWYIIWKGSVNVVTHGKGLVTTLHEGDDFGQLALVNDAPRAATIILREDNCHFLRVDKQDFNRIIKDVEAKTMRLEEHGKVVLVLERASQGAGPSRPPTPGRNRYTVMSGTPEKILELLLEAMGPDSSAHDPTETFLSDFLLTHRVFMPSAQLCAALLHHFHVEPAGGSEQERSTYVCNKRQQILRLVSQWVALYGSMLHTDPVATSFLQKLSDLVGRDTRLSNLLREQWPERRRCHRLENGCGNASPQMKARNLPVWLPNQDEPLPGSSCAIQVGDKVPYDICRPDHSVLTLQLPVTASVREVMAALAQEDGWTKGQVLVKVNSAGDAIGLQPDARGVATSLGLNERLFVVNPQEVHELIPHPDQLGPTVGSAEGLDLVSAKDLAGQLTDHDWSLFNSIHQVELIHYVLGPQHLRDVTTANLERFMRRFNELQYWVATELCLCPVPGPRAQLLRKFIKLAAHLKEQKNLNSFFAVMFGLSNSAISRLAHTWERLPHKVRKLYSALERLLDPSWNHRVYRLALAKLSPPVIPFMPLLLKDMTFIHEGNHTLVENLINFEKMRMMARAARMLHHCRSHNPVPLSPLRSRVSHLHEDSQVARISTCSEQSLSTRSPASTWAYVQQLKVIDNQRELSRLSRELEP

The compounds below were run against Rap guanine nucleotide exchange factor 3 (Homo sapiens) (UniProt O95398) (assay: qHTS for Antagonist of cAMP-regulated guanine nucleotide exchange factor 3 (EPAC1): primary screen). Conditions: EPAC1 GEF assay, Rap1b-BODIPY-GDP exchange fluorescence; at 115 µM (top of the series).
From the text: In multi-cellular eukaryotic organisms, the effects of cAMP are transduced by two ubiquitously-expressed intracellular cAMP receptors, the classic protein kinase A/cAMP-dependent protein kinase (PKA/cAPK) and the more recently discovered exchange protein directly activated by cAMP/cAMP-regulated guanine nucleotide exchange factor (EPAC/cAMP-GEF). Both PKA and EPAC are ubiquitously expressed in all tissues, and an increase in intracellular cAMP levels will lead to the activation of both PKA and EPAC. Therefore, careful dissections of the individual role and relative contribution of EPAC and PKA within the overall cAMP signaling in various model systems are critical for further elucidating the mechanism of cAMP signaling. To date no EPAC-specific antagonists and agonist, as well as isoform-specific agonists have been reported, and developing EPAC-specific pharmacological probes to determine the physiological functions that EPAC play in the overall cAMP-mediated signaling remains a major challenge within the research field. Furthermore, identified regulators of EPAC may lead to new mechanism-based therapeutic strategies specifically targeting the EPAC / cAMP-signaling components as EPAC has been implicated to play important roles in major human pathological conditions such as diabetes, heart disease, and cancer. This qHTS will be used to screen the Molecular Libraries Small Molecule Repository (MLSMR) as a concentration-titration series using the NCGC unique quantitative screening (qHTS) platform to find inhibitors for EPAC1. In addition, this assay will also be used as a counterscreen for the EPAC2 qHTS. This fluorescent based assay is developed and validated for EPAC1 that measures exchange using EPAC effector Rap1 complex with BODIPY-GDP, a GDP analog with a tethered fluorophores. Inhibitors are identified by monitoring the change in fluorescence signal as the exchanged free BODIPY-GDP has a reduced fluorescence compared to Rap1-bound BODIPY-GDP. Decrease in signal (inhibition) is the desired outcome for the EPAC1 antagonist while no activity in this assay is desired for the EPAC2 antagonist counterscreen. de Rooij, J., Zwartkruis, F. J., Verheijen, M. H., Cool, R. H., Nijman, S. M., Wittinghofer, A., and Bos, J.L. (1998) Nature 396, 474-477 [2] Kawasaki, H., Springett, G. M., Mochizuki, N., Toki, S., Nakaya, M., Matsuda, M., Housman, D. E., and Graybiel, A. M. (1998) Science 282, 2275-2279 NIH Chemical Genomics Center [NCGC] NIH Molecular Libraries Probe Centers Network [MLPCN] MLPCN Grant: NS066510 Assay Submitter (PI): Xiaodong Cheng, The University of Texas, Medical Branch
Briefly, three uL of reagents (100 nM EPAC1, 250 nM RAP1B-BODIPY-GDP, 50 uM GDP) were dispensed into a 1536-well Greiner black solid-bottom medium binding assay plate. Controls and test compounds (23 nL) were transferred to the plate via a Kalypsys pin tool equipped with a 1536-pin array. The plates were centrifuged at 1,000 rpm for 15 seconds followed by 5 minute incubation at room temperature. The assay plates were read at 5 minute intervals for 30 minutes in the ViewLux plate reader using 480nm excitation and 540nm emission filters. The results were normalized to the […] positive control ATA and DMSO.
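Note: plate controls were vehicle for no effect and positive control for full effect; nearly all actives have a fitted effect of over 50% in size.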

Row | SMILES | activity change, negative = inhibition
1 | COc1ccccc1OP(C)(=O)Nc1cccc(Br)c1 (centres undefined) | inactive: 3.09%
2 | COc1ccccc1-c1ccccn1.O=[N+]([O-])c1cc([N+](=O)[O-])c(O)c([N+](=O)[O-])c1 | inactive: -10.1%
3 | CCN(CC)CCCOC(=O)C(O)(c1ccccc1)c1ccccc1 | inactive: 4.53%
4 | COc1ccc(OP(C)(=O)Nc2cccc(F)c2)cc1 (centres undefined) | inactive: 9.58%
5 | COc1ccccc1OP(C)(=O)Nc1cc(Cl)ccc1C (centres undefined) | inactive: 4.85%
6 | Cc1cc(C)cc(OP(C)(N)=O)c1 (centres undefined) | inactive: 5.1%
7 | CCOC(=O)c1ccc(NP(C)(=O)Oc2ccccc2)cc1 (centres undefined) | inactive: 10.9%
8 | Cc1ccc(NP(C)(=O)Oc2ccccc2)c(C)c1 (centres undefined) | inactive: -0.307%
9 | COc1ccccc1OP(C)(=O)Nc1ccc(C)cc1 (centres undefined) | inactive: -0.397%
10 | Cc1cccc(C)c1OP(C)(N)=O (centres undefined) | inactive: 1.1%
11 | CC(C)(C)c1ccc(OP(C)(=O)Nc2ccc(SC(F)(F)F)cc2)cc1 (centres undefined) | inactive: -26%
12 | O=[N+]([O-])c1ccc2c(c1)C=Nc1ccccc1O2 | inactive: -18.7%
13 | O=[N+]([O-])c1cc([N+](=O)[O-])c(Nc2cccnc2)c([N+](=O)[O-])c1 | inactive: 2.97%
14 | COc1ccccc1OP(C)(=O)Nc1ccccc1 (centres undefined) | inactive: 4.51%
15 | CP(=O)(Nc1ccccc1Br)Oc1ccccc1 (centres undefined) | inactive: 9.11%
16 | CP(=S)(Nn1cnnc1)Oc1ccccc1 (centres undefined) | inactive: -13.7%
17 | CP(=O)(Nc1ccccn1)Oc1ccc(Cl)cc1 (centres undefined) | inactive: -0.767%
18 | CCOP(C)(=S)SCC(=O)NC(C)C(=O)O (centres undefined) | inactive: -2.63%
19 | CCOC(=O)c1ccc(NP(C)(=O)Oc2ccc(OC)cc2)cc1 (centres undefined) | inactive: 15.2%
20 | O=[N+]([O-])c1cc([N+](=O)[O-])c(O)c([N+](=O)[O-])c1.c1ccc(Oc2ccncc2)cc1 | inactive: -13.2%
21 | CP(=O)(NC(=O)Nc1ccccc1)Oc1ccccc1 (centres undefined) | inactive: -12.2%
22 | CCc1ccc(OP(C)(=O)N2CCN(c3ccc([N+](=O)[O-])cc3)CC2)cc1 (centres undefined) | inactive: -10.9%
23 | CP(=O)(Oc1ccccc1)OC(c1ccccc1)C(F)(F)F (centres undefined) | inactive: -19.6%
24 | Cc1cccc(C)c1OP(C)(=O)Nc1ccc(SC(F)(F)F)cc1 (centres undefined) | inactive: -5.36%
